Experimental data reported in US4322528A (priority 1979, dated 1982).

Legend:
[1] = test system: Housefly Adult; test: Contact spray, housefly adult; settings: @100 ppm
[2] = test system: Parathion-resistant Two-spotted Spider Mite Egg; test: Leaf dip, parathion-resistant two-spotted spider mite, egg; settings: @40 ppm
[3] = Stability of dimer / dimer complex
[4] = test system: American Cockroach Nymph; test: Contact spray, American cockroach nymph; assay type: in vivo; settings: @250 ppm
[5] = test system: Housefly Larvae; test: 7-Day exposure, housefly larvae (soil mix); settings: @40 ppm, first treatment sub-column (head is a drawing)
[6] = test system: Cotton Aphid Adult; test: Leaf dip, cotton aphid adult; assay type: in vivo; settings: @10 ppm
[7] = test system: Tobacco Budworm Larvae; test: Leaf feed (leaf dip), tobacco budworm larvae; settings: @500 ppm

| Molecule | Housefly Adult, Contact Spray, % control @ ppm [1] [%] | Parathion-resistant Two-spotted Spider Mite, Egg, % control @ ppm [2] [%] | Stability: t1/2 ([3]; 25°) [h] | regeneration of pentachloro-α-pyrrolenine (PCP) after standing ([3]; after standing at 25°, UV (Et2 O)) [%] | American Cockroach Nymph, Contact Spray, % control @ ppm [4] [%] | 7-Day Exposure Housefly Larvae Treatment, % control @ ppm [5] [%] | Cotton Aphid Adult, Leaf Dip, % Control @ ppm [6] [%] | Tobacco Budworm Larvae, Leaf Feed, % control @ ppm [7] [%] |
| --- | --- | --- | --- | --- | --- | --- | --- | --- |
| ClC1(Cl)N2C3(Cl)C(Cl)(Cl)N4C1(Cl)C1(Cl)C4(Cl)C3(Cl)C21Cl (stereo not shown) | 73 | 21 | 220 | 99.1 | 15 | 47 | – | – |
| 1-aza-6-methloxycarbonyl-2,3,4,7,7-pentachlorobicyclo[2.2.1]hept-2-ene | 26 | – | – | – | – | 13 | 36 | 13 |
